Test results published in patent publication USRE48599E1, “Compositions comprising TLIA-Ig fusion protein for the regulation of T regulatory cells, and methods for their use” (University of Miami, priority 2013, dated 2021).

System: FoxP3+CD4+ Treg cells
Assay: Combination of TNFRSF25 agonist and IL-2: Treg expansion in peripheral blood
Assay type: in vivo, wild type mice
Procedure: In a first set of experiments, wild type mice were treated with low-dose IL-2 (300,000 units/m^2), control (IgG), TL1A-Ig (0.5 mg/kg), or a combination treatment with TL1A-Ig and a single injection of very low-dose IL-2 (30,000 units/m^2) or with a combination treatment with TL1A-Ig and a single injection of low dose IL-2 (300,000 units/m^2). The frequency of CD4+FoxP3+ cells out of total CD4+ cells was monitored in the peripheral blood on the indicated days.
In a second set of experiments, wild type mice were treated with low-dose IL-2 (300,000 units/m2), control (IgG), 4C12 antibody (0.4 mg/kg), or with a combination treatment with 4C12 antibody and a single injection of low dose IL-2 (300,000 units/m2). The frequency of CD4+ FoxP3+ cells out of total CD4+ cells was monitored in the peripheral blood on the indicated days.

Low dose IL-2: interleukin-2, low dose 300,000 units/m^2
less than 20%: percentage of FoxP3+ Treg cells (out of total CD4+ cells) (5 days post-treatment, peripheral blood, FIG. 16) | frequency of Treg cells (6 days after treatment, peripheral blood, FIG. 16) | frequency of Treg cells, of all CD4+ CD3+ peripheral blood cells (Six days after treatment, FIG. 17)
